The nature of the experiment: Selectivity ratio, ratio of IC50 for full length human PARP-1 to IC50 for recombinant full length mouse PARP-2. The procedure, abridged: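 Ratio of IC50s from two assays. Human full-length PARP-1 from HeLa nuclear extract (ca. 50 ng) in FlashPlate scintillation proximity assay with 5.0 μM NAD+. Murine full-length PARP-2 antibody-captured with 2.5 μM 3H-NAD+. Both used duplex oligonucleotide DNA, 2% DMSO, pH 7.6 HEPES buffer, 10 min preincubation then 45 min reaction, eight concentrations in triplicate, and log dose-response IC50 fits.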

`O=C(Nc1cccc2c(=O)[nH]ccc12)C12CC3CC(CC(C3)C1)C2`: the Ratio IC50 is greater than 2.5. With `O=C(Nc1cccc2c(=O)[nH]ccc12)C1CCCCC1` the figure was greater than 2.9.

Values taken from ChEMBL document CHEMBL1765088, “5-Benzamidoisoquinolin-1-ones and 5-(ω-carboxyalkyl)isoquinolin-1-ones as isoform-selective inhibitors of poly(ADP-ribose) polymerase 2 (PARP-2)” (J Med Chem, 2011).
